Values joined by “and” are separate entries in the source; they are usually repeats but may differ in a detail not shown here. Equal values may be shown once.
Test system: α1-acid glycoprotein (AGP)
Assay: Bound percentage by HPLC on AGP column, extrapolation to zero organic modifier
Assay type: in vitro ADME, human
Conditions: for Bound percentage (b%), average: average of IPA, EtOH, MeOH
Protocol: Chromatographic columns containing proteins can be used to determine the percentage of drug binding. A plot of the natural logarithm of the retention factors against the proportion of organic modifiers was created. […] The intercept of these linear equations can be used to calculate the bound percentage according to Equation (4) (see in Section 3.2).
Chromatographic measurements were carried out on two separate HPLC systems. The AGP binding study was performed on a Waters 2695e chromatographic system paired with a Waters 2996 PDA detector, controlled by Empower 3 FR5 (Waters Corp., Milford, MA, USA), while the HSA binding study was performed on an Agilent 1100 HPLC system, consisting of an inline degasser (G1322A), a quaternary pump (G1311A), an automatic injector (G1329A) paired with sample thermostat (G1330A), a column thermostat (G1316A), and a diode array detector (G1315A) with Agilent Chemstation B04.03-SP2 software (Agilent, Bronnwald, Germany). For the binding studies, two protein-based chiral stationary phases were utilized. The chromatographic binding study for AGP was conducted on a ChromTech Chiral-AGP column (150 mm × 4.0 mm; ChromTech Ltd., Congleton, UK), while the binding study for HSA was performed on a Daicel Chiralpak HSA column (50 mm × 4.0 mm; Daicel Corp., Osaka, Japan). The detection wavelength was 210 nm for all measurements. The stock solutions of PPIs were prepared at a concentration of 1 mg/mL in MeOH. Subsequent dilutions were prepared using water. The injected samples were mixed and diluted from the stock solutions. The final concentration for the eutomer was 0.2 mg/mL, and for the distomer, it was 0.1 mg/mL. A volume of 2 μL was injected. To mitigate the instability of PPIs in aqueous solutions, the samples were kept at a temperature of 4 °C. Cooling the samples to 4 °C prevented significant decomposition for a period of 24 h. After 24 h, new samples were prepared for injection. Chromatographic parameters were calculated based on the following equations. The retention factor (k) was calculated as:(1) k=(tr−t0)/t0 where tr is the retention time of the investigated analyte, and t0 is the dead time, determined as the first peak appearance in the chromatogram. Resolution was calculated based on the following equation:(2) Rs=2(t2−t1)/(w1+w2) where t2 and t1 are the retention times of the second and first eluted enantiomers, respectively, while w is the peak width. The separation factor (α) was calculated as follows:(3) α=k2/k1 where k1 and k2 are the retention factors of the first- and second-eluting enantiomers, respectively. The k values were also used to calculate the protein-bound percentage (b%) using Equation (4):(4) b%=k/1+k×100

[1] = extrapolation to zero percent EtOH
[2] = extrapolation to zero percent IPA
[3] = extrapolation to zero percent MeOH

Row | Bound percentage (b%), average | Bound percentage (b%) [1] [%] | Bound percentage (b%) [2] [%] | Bound percentage (b%) [3] [%] | SMILES
1 | 96.65% | 96.74 | 98.97 | 94.25 | COc1ccc2[nH]c([S@+]([O-])Cc3ncc(C)c(OC)c3C)nc2c1 [R-omeprazole]
2 | 97.23% and 97.23 ± 2.23% | 97.39 | 99.38 | 94.93 | COc1ccc2nc([S@@+]([O-])Cc3ncc(C)c(OC)c3C)[nH]c2c1 [S-omeprazole, esomeprazole]
